{"sequences": {"note": "The chains behind the UniProt entries cited, without tags or fusion partners. Residues count along the entry.", "UniProt P47871, 26-477": "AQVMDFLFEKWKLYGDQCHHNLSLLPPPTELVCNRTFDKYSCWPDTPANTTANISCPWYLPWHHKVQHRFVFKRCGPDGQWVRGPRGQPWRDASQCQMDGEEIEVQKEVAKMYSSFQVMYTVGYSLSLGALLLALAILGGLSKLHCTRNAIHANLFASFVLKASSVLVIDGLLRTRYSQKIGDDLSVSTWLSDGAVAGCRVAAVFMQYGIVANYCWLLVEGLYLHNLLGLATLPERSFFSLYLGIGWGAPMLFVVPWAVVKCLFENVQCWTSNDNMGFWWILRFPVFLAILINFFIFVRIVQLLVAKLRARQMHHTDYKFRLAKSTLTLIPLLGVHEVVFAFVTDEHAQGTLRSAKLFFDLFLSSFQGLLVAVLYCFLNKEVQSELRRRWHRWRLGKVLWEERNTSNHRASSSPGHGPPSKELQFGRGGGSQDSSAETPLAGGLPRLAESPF"}, "source": "patent US11058775B2", "about": "“Insulin dimer-incretin conjugates” (Merck Sharp & Dohme Corp., priority 2016, dated 2021)", "target": "T1, human GCGR (Homo sapiens, UniProt P47871)", "T1 construct": "expressed in transfected cells; grown under Blasticidin and Hygromycin selection", "assay": "cAMP activity assay, cells expressing human GCGR", "format": "cell-based", "settings": "ratio of hGCGR EC50 to hGLP1R EC50, Table 7", "data": [{"smiles": "CC(C)C[C@H](NC(=O)[C@H](Cc1ccc(O)cc1)NC(=O)[C@H](CCCCN)NC(=O)[C@H](CO)NC(=O)[C@H](Cc1ccc(O)cc1)NC(=O)[C@H](CC(=O)O)NC(=O)[C@H](CO)NC(=O)[C@@H](NC(=O)[C@H](Cc1ccccc1)NC(=O)[C@@H](NC(=O)CNC(=O)[C@H](CCC(N)=O)NC(=O)[C@@H](CO)NC(=O)[C@@H](N)Cc1c[nH]cn1)[C@@H](C)O)[C@@H](C)O)C(=O)N[C@@H](CC(=O)O)C(=O)N[C@@H](CCC(=O)O)C(=O)N[C@@H](CCCNC(=N)N)C(=O)N[C@@H](C)C(=O)N[C@@H](C)C(=O)N[C@@H](CCC(N)=O)C(=O)N[C@@H](CC(=O)O)C(=O)N[C@@H](Cc1ccccc1)C(=O)N[C@H](C(=O)N[C@@H](CCCCNC(=O)COCCOCCNC(=O)COCCOCCNC(=O)CC[C@H](NC(=O)CCCCCCCCCCCCCCCN=[N+]=[N-])C(=O)O)C(=O)N[C@@H](Cc1c[nH]c2ccccc12)C(=O)N[C@@H](CC(C)C)C(=O)N[C@@H](CC(C)C)C(=O)N[C@@H](CC(=O)O)C(=O)N[C@H](C(N)=O)[C@@H](C)O)C(C)C", "note": "[PEP90]", "values": [{"measurement": "GCGR/GLP1R ratio", "result": 0.66}]}]}
